# Measurements as given in patent publication US11186592B2, “Thiazolopyridine derivatives as adenosine receptor antagonists” (MERCK PATENT GMBH, priority 2017, dated 2021).
# The chains behind the UniProt entries cited, without tags or fusion partners. Where a name states a change or a piece, a line headed by the entry shows the natural chain unless it says otherwise.
# UniProt P29275, whole entry: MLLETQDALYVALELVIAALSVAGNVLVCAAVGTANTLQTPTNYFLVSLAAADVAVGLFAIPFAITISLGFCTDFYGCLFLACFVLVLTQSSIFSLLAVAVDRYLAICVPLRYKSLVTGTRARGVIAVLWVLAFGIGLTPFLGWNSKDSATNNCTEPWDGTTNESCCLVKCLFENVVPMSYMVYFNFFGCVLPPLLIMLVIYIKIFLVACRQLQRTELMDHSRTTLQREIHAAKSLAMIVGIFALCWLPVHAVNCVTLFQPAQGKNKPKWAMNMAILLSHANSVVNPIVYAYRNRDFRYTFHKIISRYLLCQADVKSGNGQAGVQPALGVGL
# UniProt P30542, whole entry: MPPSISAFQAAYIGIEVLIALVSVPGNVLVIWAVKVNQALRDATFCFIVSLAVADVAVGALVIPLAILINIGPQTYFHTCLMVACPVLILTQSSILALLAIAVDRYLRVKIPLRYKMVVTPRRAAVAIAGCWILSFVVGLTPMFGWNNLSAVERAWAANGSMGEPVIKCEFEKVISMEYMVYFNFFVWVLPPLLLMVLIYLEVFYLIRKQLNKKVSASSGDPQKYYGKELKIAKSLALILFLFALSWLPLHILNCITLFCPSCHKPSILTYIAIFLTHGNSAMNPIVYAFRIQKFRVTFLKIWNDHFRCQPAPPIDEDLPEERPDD
# How the values were obtained:
# human A2A receptor = human A2A receptor (Homo sapiens, UniProt P29274); assay: cAMP (HTRF) functional assay, recombinant HEK293 cells expressing human A2A receptor, agonist NECA; details: read-out: Functional A2A receptor activity, HEK293, cAMP, IC50
# human A2B receptor = human A2B receptor (Homo sapiens, UniProt P29275); assay: cAMP (HTRF) functional assay, recombinant HEK293 cells expressing human A2B receptor, agonist NECA; format: cell-based; details: read-out: Functional A2B receptor activity, HEK293, cAMP, IC50
# human A1 receptor = human A1 receptor (Homo sapiens, UniProt P30542); assay: cAMP (HTRF) functional assay, recombinant CHO cells expressing human A1 receptor, forskolin + agonist CPA; details: read-out: Functional A1 receptor activity, CHO, cAMP, IC50
SMILES,IC50 (human A2A receptor) [µM],IC50 (human A2B receptor) [µM],IC50 (human A1 receptor) [µM]
COc1ncc(C2CCOCC2)c2sc(NC(=O)c3ccc(C(=O)N(C)C)nc3)nc12,< 0.1,< 0.1,> 1
COc1ncc(-c2cccnc2)c2sc(NC(=O)N3CCC4(CCOCC4)C3)nc12,< 0.1,< 0.1,< 1
